Where two headings read alike, the source gives them in different places.
Key:
ACE [1] = assay: at-line ACE inhibition assay; type: biochemical
Procedure: For the at-line ACE inhibition assay 27 μl of a 33.4 mU ml^−1 ACE (enzyme obtained from Sigma) in phosphate buffered saline (PBS) pH 7.4 with a chloride concentration of 260 mM was added and the mixture was allowed to incubate for 5 minutes on a 96 well plate mixer at 700 RPM. After the incubation period 13 μl of a 0.35 mM hippuric acid-histidine leucine (HHL) solution in PBS buffer was added and mixed for 1 minute at 700 RPM. The mixture was allowed to react for 60 minutes at 50° C. in a GC-oven. After the reaction the plate was cooled in melting ice.
The 96 well plate was then analysed on a flash-HPLC-column. Of the reaction mixture of each well 30 μl was injected on a Chromlith Flash RP18e 25×4.6 mm HPLC column (Merck, Darmstadt, Germany) equipped with a 10×4.6 mm RP18e guard column from the same supplier. The isocratic mobile phase consisted of a 0.1% solution of TFA in water/acetonitrile 79/21. […] Hippuric acid (H) and HHL were monitored at 280 nm. The peak heights of H and HHL were measured and the ACE inhibition (ACEI) of each fraction was calculated according to the equation: […]
• DCw Degree of Cleavage by ACE of HHL to H and HL in water • DCa Degree of Cleavage of HHL to H and HL for the analyte The Degree of Cleavage was calculated by expressing the peak height of H as a fraction of the sum of the peak heights of H and HHL.

ACE [2] = assay: modified Matsui ACE inhibition assay; type: biochemical; conditions: as stated in description text; read-out: IC50 value in the Modified Matsui test
Procedure: To determine the ACE inhibition activity of MAP and ITP, the chemically synthesised tripeptides were assayed according to the method of Matsui et al. (Matsui, T. et al. (1992) Biosci. Biotech. Biochem. 56: 517-518) with some minor modifications.
Each one of the four samples contained 75 μl 3 mM hippuryl histidine leucine (Hip-His-Leu, Sigma) dissolved in a 250 mM borate solution containing 200 mM NaCl, pH 8.3. ACE was obtained from Sigma. The mixtures were incubated at 37° C. and stopped after 30 min by adding 125 μl 0.5 M HCl. […] After incubation for 20 min. at 37° C., 4 ml 4 mM Na2SO3 in 0.2 M NaH2PO4 was added and the light absorbance at 416 nm was measured with UV/Vis spectrophotometer (Shimadzu UV-1601 with a CPS controller, Netherlands).
The amount of ACE inhibition (ACEI) activity was calculated as a percentage of inhibition compared with the conversion rate of ACE in the absence of an inhibitor according to the following formula: […]
Control 1=Absorbance without ACE inhibitory component (=max. ACE activity) [AU]. Control 2=Absorbance without ACE inhibitory component and without ACE (background) [AU]. Sample1=Absorbance in the presence of ACE and the ACE inhibitory component [AU]. Sample 2=Absorbance in the presence of the ACE inhibitory component, but without ACE [AU]. […]

[3] = gastro-intestinal treatment (GIT procedure) of CDBAP, simulated human gastro-intestinal tract; type: in vitro ADME
Procedure: After consumption, dietary proteins and peptides are exposed to various digestive enzymatic processes in the gastrointestinal tract. […] Samples obtained after various incubation times in the GIT model system were analysed using the on-line HPLC-Bioassay-MS or HRS-MS system to quantify any residual MAP and ITP peptides. The GIT procedure was performed in a standardized mixing device incorporating a 100 ml flask (as supplied by Vankel, US). The temperature of the water bath was set to 37.5° C. and the paddle speed was chosen such that the sample was kept in suspension (100 rpm). […] During gastric simulation 5 M HCl was used to decrease the pH. At the end of gastric simulation and during the duodenal phase 5 M NaOH was used to raise the pH. […] At t=0 min the 5 ml with the now dissolved pepsin was added back to the suspension. […] [table] At t=90 min 0.139 g of 8 times USP pancreatin (Sigma order no. […] The incubation continued according to the following scheme: [table] The experiment was stopped at t=125 min and the pH was checked (was still pH 7). Then the samples were transferred into a beaker and were placed in a microwave till boiling. Subsequently, the samples were transferred into glass tubes and incubated at 95° C. for 60 min to inactivate all protease activity. […] The supernatant was freeze dried. The total N concentration of the powder as obtained was determined and converted to protein level using the Kjeldahl factor of casein (6.38). […] The levels of MAP and ITP surviving the proteolytic treatment according to the GIT procedure were determined as described in Example 7 and the data obtained are shown in Table 10.

[4] = Simulated in-vitro gastro-intestinal digestion of synthetic MAP and ITP (micro-dissolution); type: in vitro ADME; conditions: for remaining at 65 min, 10 microgram/ml / remaining at 1.5 h, 10 microgram/ml / remaining at 2 h, 10 microgram/ml: simulated intestinal fluid, pH 6.8; for % average remaining: 0 minutes
[5] = simulated gastric fluid, pH 3.5

Row | SMILES | IC50 (ACE [1]) | IC50 (ACE [2]) | Concentration in powder before GIT procedure [3] | resistance against GIT digestion [3] | stability under gastro-intestinal conditions [4] | remaining at 0.5 h, 10 microgram/ml [4, 5] | remaining at 65 min, 10 microgram/ml [4] | remaining at 1.5 h, 10 microgram/ml [4] | remaining at 2 h, 10 microgram/ml [4] | resistance against GIT digestion ([3]; in CDBAP) | % average remaining ([4]; 1 microgram/ml) | % average remaining ([4]; 10 microgram/ml) | remaining at 1 h, 10 microgram/ml [4, 5] | stability under gastro-intestinal conditions ([4]; synthetic peptide)
1 | CSCC[C@H](N)C(=O)N[C@@H](C)C(=O)N1CCC[C@H]1C(=O)O [MAP, Methionine-Alanine-Proline] | 3.8 µM | 0.5 µM | 2851.4 μg g^−1 powder | high resistance against GIT digestion | reasonably good stability under gastro-intestinal conditions | 77% | 37% | 11% | 3% | – | – | – | – | –
2 | CC[C@H](C)[C@H](N)C(=O)N[C@H](C(=O)N1CCC[C@H]1C(=O)O)[C@@H](C)O [ITP, Isoleucine-Threonine-Proline] | 50 µM | – | 903.7 μg g^−1 powder | – | – | 81% | 75% | 62% | 46% | high resistance against GIT digestion | 100% | 100% | 91% | excellent stability under gastro-intestinal conditions
